Values quoted from earlier work, collected in publication PMC8396023, “Peptide Stapling Improves the Sustainability of a Peptide-Based Chimeric Molecule That Induces Targeted Protein Degradation” (International Journal of Molecular Sciences, 2021).

Settings: reductive environment in the cell

peptidomimetic estrogen receptor modulators 3 [PERM3]
stability in cell (disulfide bond): cleaved by the reductive environment in the cell and therefore loses its activity
